This test deals with PAD4 (Homo sapiens, UniProt Q9UM07). Description: IC50 of FIG. 3 compounds 15 and 19. The format is biochemical.

By UniProt entry, the sequences of proteins in these tests, tags left out.
UniProt Q9UM07, whole entry: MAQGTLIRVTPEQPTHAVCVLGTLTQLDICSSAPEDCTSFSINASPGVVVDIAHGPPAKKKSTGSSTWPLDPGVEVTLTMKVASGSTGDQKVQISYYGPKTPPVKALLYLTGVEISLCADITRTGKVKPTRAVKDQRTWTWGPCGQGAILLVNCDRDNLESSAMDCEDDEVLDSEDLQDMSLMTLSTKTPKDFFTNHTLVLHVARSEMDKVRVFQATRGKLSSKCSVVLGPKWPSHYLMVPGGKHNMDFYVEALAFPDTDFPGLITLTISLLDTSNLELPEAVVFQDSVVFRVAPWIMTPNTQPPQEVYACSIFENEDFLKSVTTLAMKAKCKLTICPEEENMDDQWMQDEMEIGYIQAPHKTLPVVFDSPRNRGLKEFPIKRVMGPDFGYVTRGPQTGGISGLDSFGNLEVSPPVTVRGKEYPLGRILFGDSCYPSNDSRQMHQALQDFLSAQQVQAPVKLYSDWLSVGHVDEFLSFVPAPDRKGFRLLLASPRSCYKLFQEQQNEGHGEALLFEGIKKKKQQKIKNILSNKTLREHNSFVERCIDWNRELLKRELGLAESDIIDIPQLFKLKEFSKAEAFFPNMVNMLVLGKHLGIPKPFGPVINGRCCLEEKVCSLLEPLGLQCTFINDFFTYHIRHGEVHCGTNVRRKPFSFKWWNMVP

As usually defined, the IC50 is the point on the concentration scale where inhibition reaches its midpoint.

Molecules are shown by their SMILES.

`[N-]=[N+]=Nc1ccc(C(=O)N[C@@H](CCCNC(=N)CF)C(N)=O)cc1` returned an IC50 of 25.5 µM.

`N=C(CCl)NCCCC(NC(=O)c1ccccc1)C(=O)O` (centres unmarked) returned an IC50 of 6.67 µM.
